Assay: Pharmacokinetic study in Wistar rats, total anti-heparin activity in plasma (fixed UFH added, residual UFH by anti-FXa kit)
Assay type: in vivo
Method: Processing of Plasma Samples: 100 μL of the unknown plasma sample was added to 500 μL of 75% methanol (methanol: water = 75:25, v/v) and vortex-mixed for 5 seconds. The mixture was then centrifuged at 12,000 r/min for 10 minutes at 25°C. The supernatant (500 μL) was collected and dried under nitrogen at 60°C. Subsequently, UFH (0.14 U·mL^-1 for PS and 0.15 U·mL^-1 for R15; 120 μL) was added, and the mixture was vigorously shaken at room temperature for 10 minutes. The residual UFH content was measured using the Heparin Anti-FXa assay kit.
The detailed procedure is as follows: Accurately pipette 40 μL of the sample into a 96-well plate. Place the plate in a microplate shaker. Using a multichannel pipette, add 40 μL of reagent R1 and mix by shaking. Incubate at 37 °C for exactly 3 minutes (start timing upon addition of R1; at 50 seconds, begin shaking with the microplate shaker for 1 minute, then place the plate in the incubator). Remove the 96-well plate from the incubator and place it on the open microplate shaker. Using a multichannel pipette, add 40 μL of reagent R2 to each well and incubate at 37 °C for 6 minutes (after adding R2, at 3 minutes and 50 seconds, open the microplate shaker and shake for 4 minutes, then return the plate to the incubator). Remove the 96-well plate from the incubator and place it on the open microplate shaker. Quickly add 40 μL of reagent R3 using a multichannel pipette and shake until 9 minutes and 10 seconds. At 9 minutes and 30 seconds, add 80 μL of 20% acetic acid to each well to terminate the reaction. Measure the absorbance at 405 nm using a microplate reader (Multiskan FC, Thermo Fisher US).
Eight Wistar rats (approximately 250 g; equally divided by sex and acclimatized for 1 week in the animal facility) were used for profiling pharmacokinetics of PS. Each rat was cannulated in carotid artery to collect blood the day before the experiment. PS was injected through the tail vein and blood samples were collected at 0 min, 1 min, 3 min, 5 min, 7 min, 9 min, 11 min, 15 min, 20 min, 30 min, 60 min and 120 min in a tube containing 4% sodium citrate. Plasma was achieved by centrifugation at 8000 r/min for 10 min, and stored in the refrigerator at −80°C. […]
During the analysis of actual samples, a standard curve and a series of calibration standards were established for each analytical batch to determine the concentration of PS and R15 in plasma. The concentrations were plotted on the X-axis, and the data were fitted using Equation (3).
Weighted least squares regression was used for the calculations. The Optical Density (OD) values of the unknown biological samples were substituted into the equation to determine the concentration of PS and R15, respectively.
Pharmacokinetic parameters of PS were calculated by WinNonlin 6.4, and all data were processed by Microsoft Excel 2013 and GraphPad Prism 8.3.

[1] = R15 300 U/kg iv, rat 9# (male), single animal
[2] = R15 300 U/kg iv, rat 11# (male), single animal
[3] = R15 300 U/kg iv, rat 14# (male), single animal
[4] = R15 300 U/kg iv, rat 15# (male), single animal
[5] = R15 300 U/kg iv, rat 18# (female), single animal
[6] = R15 300 U/kg iv, rat 19# (female), single animal
[7] = R15 300 U/kg iv, rat 20# (female), single animal
[8] = R15 300 U/kg iv, rat 30# (female), single animal
[9] = R15 300 U·kg^-1 single iv tail vein, Wistar rats, Total (male and female), mean ± SD, n = 8
[10] = R15 300 U·kg^-1 single iv tail vein, Wistar rats, female, mean ± SD, n = 4
[11] = R15 300 U·kg^-1 single iv tail vein, Wistar rats, male, mean ± SD, n = 4
[12] = R15 900 U/kg iv, rat 2# (male), single animal
[13] = R15 900 U/kg iv, rat 3# (male), single animal
[14] = R15 900 U/kg iv, rat 4# (male), single animal
[15] = R15 900 U/kg iv, rat 12# (male), single animal
[16] = R15 900 U/kg iv, rat 16# (female), single animal
[17] = R15 900 U/kg iv, rat 23# (female), single animal
[18] = R15 900 U/kg iv, rat 24# (female), single animal
[19] = R15 900 U/kg iv, rat 26# (female), single animal

AUC [1]: 662 min･µg･mL^-1
CL [1]: 2.45 mL･min^-1･kg^-1
Cmax [1]: 9.90 µg･mL^-1
MRT [1]: 1.096 h
T1/2 [1]: 1.062 h
Vd [1]: 225 mL･kg^-1
AUC [2]: 427 min･µg･mL^-1
CL [2]: 3.44 mL･min^-1･kg^-1
Cmax [2]: 10.65 µg･mL^-1
MRT [2]: 0.6837 h
T1/2 [2]: 0.7762 h
Vd [2]: 231 mL･kg^-1
AUC [3]: 423 min･µg･mL^-1
CL [3]: 3.83 mL･min^-1･kg^-1
Cmax [3]: 8.02 µg･mL^-1
MRT [3]: 0.6607 h
T1/2 [3]: 0.5427 h
Vd [3]: 180 mL･kg^-1
AUC [4]: 452 min･µg･mL^-1
CL [4]: 3.47 mL･min^-1･kg^-1
Cmax [4]: 7.14 µg･mL^-1
MRT [4]: 0.6748 h
T1/2 [4]: 0.6213 h
Vd [4]: 187 mL･kg^-1
AUC [5]: 753 min･µg･mL^-1
CL [5]: 2.16 mL･min^-1･kg^-1
Cmax [5]: 13.09 µg･mL^-1
MRT [5]: 1.069 h
T1/2 [5]: 1.064 h
Vd [5]: 199 mL･kg^-1
AUC [6]: 757 min･µg･mL^-1
CL [6]: 2.17 mL･min^-1･kg^-1
Cmax [6]: 12.60 µg･mL^-1
MRT [6]: 1.042 h
T1/2 [6]: 1.006 h
Vd [6]: 189 mL･kg^-1
AUC [7]: 920 min･µg･mL^-1
CL [7]: 1.79 mL･min^-1･kg^-1
Cmax [7]: 14.00 µg･mL^-1
MRT [7]: 1.133 h
T1/2 [7]: 1.029 h
Vd [7]: 160 mL･kg^-1
AUC [8]: 665 min･µg･mL^-1
CL [8]: 2.56 mL･min^-1･kg^-1
Cmax [8]: 11.67 µg･mL^-1
MRT [8]: 0.966 h
T1/2 [8]: 0.8225 h
Vd [8]: 182 mL･kg^-1
Cmax (R15 300 U·kg^-1 single iv tail vein, Wistar rats, Total (male and female), at 1 min, mean ± SD, n = 8): 10.89 ± 2.43 µg/mL
AUC [9]: 632 ± 182 µg·min/mL
CL [9]: 2.73 ± 0.75 mL/min/kg
MRT [9]: 0.9158 ± 0.2067 h
T1/2 [9]: 0.8655 ± 0.2063 h
Vd [9]: 194 ± 24 mL/kg
AUC [10]: 774 ± 106 µg·min/mL
CL [10]: 2.17 ± 0.31 mL/min/kg
Cmax [10]: 12.84 ± 0.97 µg/mL
MRT [10]: 1.053 ± 0.0692 h
T1/2 [10]: 0.9803 ± 0.108 h
Vd [10]: 183 ± 17 mL/kg
AUC [11]: 491 ± 115 µg·min/mL
CL [11]: 3.30 ± 0.59 mL/min/kg
Cmax [11]: 8.93 ± 1.63 µg/mL
MRT [11]: 0.7788 ± 0.2118 h
T1/2 [11]: 0.7507 ± 0.2293 h
Vd [11]: 206 ± 26 mL/kg
plasma concentration (R15 900 U/kg iv, 480 min, rat 3#): 430 ng/mL
AUC [12]: 1062 min･µg･mL^-1
CL [12]: 4.28 mL･min^-1･kg^-1
Cmax [12]: 10.95 µg･mL^-1
MRT [12]: 1.383 h
T1/2 [12]: 1.518 h
Vd [12]: 563 mL･kg^-1
AUC [13]: 1265 min･µg･mL^-1
CL [13]: 3.96 mL･min^-1･kg^-1
Cmax [13]: 10.91 µg･mL^-1
MRT [13]: 2.2747 h
T1/2 [13]: 1.9717 h
Vd [13]: 675 mL･kg^-1
AUC [14]: 805 min･µg･mL^-1
CL [14]: 5.99 mL･min^-1･kg^-1
Cmax [14]: 10.42 µg･mL^-1
MRT [14]: 1.3 h
T1/2 [14]: 1.258 h
Vd [14]: 652 mL･kg^-1
AUC [15]: 862 min･µg･mL^-1
CL [15]: 5.55 mL･min^-1･kg^-1
Cmax [15]: 13.54 µg･mL^-1
MRT [15]: 1.309 h
T1/2 [15]: 1.196 h
Vd [15]: 574 mL･kg^-1
AUC [16]: 1036 min･µg･mL^-1
CL [16]: 4.22 mL･min^-1･kg^-1
Cmax [16]: 11.60 µg･mL^-1
MRT [16]: 1.398 h
T1/2 [16]: 1.6788 h
Vd [16]: 613 mL･kg^-1
AUC [17]: 1297 min･µg･mL^-1
CL [17]: 3.74 mL･min^-1･kg^-1
Cmax [17]: 10.72 µg･mL^-1
MRT [17]: 1.8908 h
T1/2 [17]: 1.597 h
Vd [17]: 518 mL･kg^-1
AUC [18]: 906 min･µg･mL^-1
CL [18]: 5.29 mL･min^-1･kg^-1
Cmax [18]: 13.04 µg･mL^-1
MRT [18]: 1.295 h
T1/2 [18]: 1.268 h
Vd [18]: 581 mL･kg^-1
AUC [19]: 1011 min･µg･mL^-1
CL [19]: 4.76 mL･min^-1･kg^-1
Cmax [19]: 11.10 µg･mL^-1
MRT [19]: 1.7357 h
T1/2 [19]: 1.663 h
Vd [19]: 685 mL･kg^-1
SMILES: N=C(N)NCCC[C@H](NC(=O)[C@H](CCCNC(=N)N)NC(=O)[C@H](CCCNC(=N)N)NC(=O)[C@H](CCCNC(=N)N)NC(=O)[C@H](CCCNC(=N)N)NC(=O)[C@H](CCCNC(=N)N)NC(=O)[C@H](CCCNC(=N)N)NC(=O)[C@H](CCCNC(=N)N)NC(=O)[C@H](CCCNC(=N)N)NC(=O)[C@H](CCCNC(=N)N)NC(=O)[C@H](CCCNC(=N)N)NC(=O)[C@H](CCCNC(=N)N)NC(=O)[C@H](CCCNC(=N)N)NC(=O)[C@H](CCCNC(=N)N)NC(=O)[C@@H](N)CCCNC(=N)N)C(=O)O [R15]
